Positions count from the first letter of the chain named.
Experiments:
HER2 [1] = biological target: T1, HER2 (human, UniProt P04626); assay: BLI, 30C, ExpiCHO-expressed
HER2 [2] = biological target: T1, HER2; assay: BLI, 30C, E. coli-expressed
HER2 [3] = biological target: T1, HER2; assay: BLI, 30C, E. coli-expressed, bivalent analysis

B1: HL_SS+ (antibody, V domains shown)
VH: [not shown - about 120 residues]
VL: DIQMTQSPSSLSASVGDRVTITCRASQDVNTAVAWYQQKPGKAPKLLIYSASFLYSGVPSRFSGSRSGTDFTLTISSLQPEDFATYYCQQHYTTPPTFGCGTKVEIKR
B1 gave a Kd (HER2 [1]) of under 1 pM.

B2: LH_SS+ (antibody, V domains shown)
VH: [not shown - about 120 residues]
VL: B1 VL
Work on B2 yielded a Kd (HER2 [1]) of under 1 pM.

B3: HL_SSC (antibody, V domains shown)
VH: not shown
VL: B1 VL with A34C, C100Q
B3 showed a Kd (HER2 [2]) of 145 pM and a Kd (HER2 [1]) of under 1 pM.

B4: LH_SSC (antibody, V domains shown)
VH: not shown
VL: B1 VL with A34C, C100Q
With B4 the Kd (HER2 [1]) was 661 pM and the Kd (HER2 [3]) was 1300 pM.

From US20260327336 (published 2026)
